{"sequences": {"note": "Amino acid sequences for entries named in this document (tags omitted).", "UniProt P21728, whole entry": "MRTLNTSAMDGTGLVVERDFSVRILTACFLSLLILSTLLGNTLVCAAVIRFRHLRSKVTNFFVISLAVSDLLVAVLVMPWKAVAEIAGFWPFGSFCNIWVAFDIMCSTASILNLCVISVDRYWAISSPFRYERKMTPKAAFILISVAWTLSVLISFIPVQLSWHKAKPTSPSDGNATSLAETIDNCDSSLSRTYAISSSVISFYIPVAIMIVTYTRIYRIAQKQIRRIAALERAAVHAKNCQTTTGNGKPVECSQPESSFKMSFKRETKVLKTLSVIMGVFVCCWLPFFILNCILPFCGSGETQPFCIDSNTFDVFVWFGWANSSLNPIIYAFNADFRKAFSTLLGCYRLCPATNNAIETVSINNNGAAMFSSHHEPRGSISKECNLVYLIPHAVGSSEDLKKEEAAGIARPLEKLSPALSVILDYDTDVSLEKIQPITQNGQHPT"}, "source": "PubChem BioAssay AID641", "about": "(Vanderbilt High Throughput Screening Facility, 2007)", "note": "This is a selection; strong and weak results do not stand in their true shares. Some tests of the compounds listed are not included; inactive here does not mean inactive elsewhere. Activity calls are given as the source filed them.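 How the source made its calls: active means luminescence count or its row- and column-corrected plate score outside the 99.7% band of the plate's sample wells, on either side; inactive means the rest.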"}
{"biological_target": "D(1A) dopamine receptor (Homo sapiens) (UniProt P21728)", "test": "D1 CRE-luciferase signal change, two-sided – cell-based, HEK293 D1, dopamine EC30, D1 allosteric modulator project, primary screen (AID 641)", "conditions": "dopamine EC30 potentiation, at 10 µM, actives deviate in either direction"}
{"smiles": "O=C(OC1CN2CCC1CC2)C(CO)(c1ccccc1)c1ccccc1", "note": "(configuration not stated)", "B-score": "inactive: -0.0774"}
{"smiles": "CN(C)c1cccc(C(=O)NCC2(N(C)C)CCCCC2)c1", "B-score": "inactive: -0.281"}
